The structures appear in SMILES notation.

Protein sequences, listed by entry. Tags and fused reporters are not part of them.
UniProt P08659, whole entry I351A: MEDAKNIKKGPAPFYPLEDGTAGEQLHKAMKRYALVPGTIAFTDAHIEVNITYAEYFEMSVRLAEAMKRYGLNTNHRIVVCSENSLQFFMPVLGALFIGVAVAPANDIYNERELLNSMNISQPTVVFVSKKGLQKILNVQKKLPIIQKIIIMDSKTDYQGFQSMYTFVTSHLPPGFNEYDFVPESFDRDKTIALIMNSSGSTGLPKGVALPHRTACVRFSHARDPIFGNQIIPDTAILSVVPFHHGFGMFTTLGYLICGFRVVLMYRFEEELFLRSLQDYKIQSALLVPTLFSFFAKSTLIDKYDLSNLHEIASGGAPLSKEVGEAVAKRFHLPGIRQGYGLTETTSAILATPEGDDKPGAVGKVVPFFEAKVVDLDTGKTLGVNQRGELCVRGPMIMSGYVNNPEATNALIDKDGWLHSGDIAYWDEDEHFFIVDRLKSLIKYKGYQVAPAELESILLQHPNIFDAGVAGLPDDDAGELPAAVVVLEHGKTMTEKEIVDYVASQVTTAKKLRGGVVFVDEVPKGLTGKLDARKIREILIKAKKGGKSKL
UniProt P08659, whole entry F247L/L286M: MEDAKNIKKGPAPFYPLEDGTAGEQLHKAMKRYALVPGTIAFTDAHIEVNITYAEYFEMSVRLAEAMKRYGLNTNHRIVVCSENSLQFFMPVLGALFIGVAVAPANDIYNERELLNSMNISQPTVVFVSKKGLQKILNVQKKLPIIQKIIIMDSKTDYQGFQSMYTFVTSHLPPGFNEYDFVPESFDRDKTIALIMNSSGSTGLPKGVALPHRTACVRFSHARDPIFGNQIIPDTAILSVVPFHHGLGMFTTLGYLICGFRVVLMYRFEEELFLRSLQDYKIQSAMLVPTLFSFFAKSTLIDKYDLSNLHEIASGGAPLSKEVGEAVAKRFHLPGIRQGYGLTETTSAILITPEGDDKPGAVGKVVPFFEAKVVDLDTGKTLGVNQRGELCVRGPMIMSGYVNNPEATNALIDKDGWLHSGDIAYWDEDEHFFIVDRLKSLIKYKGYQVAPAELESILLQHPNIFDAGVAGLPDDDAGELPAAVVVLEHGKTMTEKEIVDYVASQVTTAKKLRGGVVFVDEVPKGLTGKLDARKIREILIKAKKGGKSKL

Assay [1] has as its target T1, I351A luciferase (Photinus pyralis, UniProt P08659, I351A).
T1 construct: The full firefly (Photinus pyralis) luciferase gene was PCR amplified from pGL3 (Promega); GST (N, cleaved yes); made in house; host or cells: E. coli JM109
Briefly: Bioluminescence emission scan. Format: biochemical. As for the experimental part:
(§1) Purified mutant luciferases were used in bioluminescence emission and burst kinetics scans.
(§2) Luciferase was rapidly injected into a cuvette containing substrate, and the emission from 400-800 nm was recorded in a SPEX FluoroMax-3 fluorimeter with closed excitation slits.

Assay [2] has as its target T2, F247L L286M luciferase (Photinus pyralis, UniProt P08659, F247L/L286M).
T2 construct: The full firefly (Photinus pyralis) luciferase gene was PCR amplified from pGL3 (Promega); GST (N, cleaved yes); made in house; host or cells: E. coli JM109
Briefly: Bioluminescence emission scan. Format: biochemical. The protocol:
as §1, §2

For the compound `O=C(O)[C@H]1CSC(c2nc3ccc(O)cc3s2)=N1` [D-Luciferin, D-luciferin], the “Wavelength at Max. Emission” value in assay [1] and in assay [2] was 570 nm each time.

Values taken from patent publication US9587266B2, “Mutant luciferases” (University of Massachusetts, priority 2011, dated 2017).
